Results on 4 compounds are retold here after patent US20250179045A1, “LPAR1 ANTAGONISTS AND USES THEREOF” (Contineum Therapeutics, Inc., priority 2021, published 2025).

By UniProt entry, the sequences of proteins in these tests, tags left out.
UniProt Q92633, whole entry: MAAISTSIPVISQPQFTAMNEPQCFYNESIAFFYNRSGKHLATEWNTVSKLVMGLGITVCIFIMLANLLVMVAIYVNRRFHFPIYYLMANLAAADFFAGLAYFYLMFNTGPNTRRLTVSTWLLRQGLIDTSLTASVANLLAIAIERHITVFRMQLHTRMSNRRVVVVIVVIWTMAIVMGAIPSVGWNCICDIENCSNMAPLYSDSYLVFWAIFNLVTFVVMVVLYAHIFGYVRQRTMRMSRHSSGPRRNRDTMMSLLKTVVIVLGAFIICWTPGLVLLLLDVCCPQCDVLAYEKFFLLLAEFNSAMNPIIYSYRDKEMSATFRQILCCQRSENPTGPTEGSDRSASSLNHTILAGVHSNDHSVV

For orientation: pIC50 means the negative decadic logarithm of the IC50, by convention in mol/L.

Each structure is given as a SMILES string. pIC50: −log10 of the molar value.

In the experiment the target is human LPA1 (Homo sapiens, UniProt Q92633). Briefly: In vitro functional assay of lysophosphatidic acid receptor 1 activity (calcium flux). The note with it: read-out: LPA1 IC50; B103 cells stably expressing human LPA1; Fluo-4 NW calcium flux after lysophosphatidic acid (18:1) at EC80; compounds 100 pM to 10 μM. Background: Calcium flux is commonly read through the fluorescence of an indicator in the cells.
In the case of `Cc1ccc(NC(=O)C2(c3ccccc3C(C)C)CC(CC(=O)O)C2)c(OC(F)F)n1` (single isomer, unassigned), the pIC50 was greater than 8.00.

In the case of `COc1ccc(NC(=O)C2(c3ccccc3C(C)C)CC(=O)N(C)C2)c(OC(F)F)n1` (single isomer, unassigned) [Example 1, N-(2-(difluoromethoxy)-6-methoxypyridin-3-yl)-3-(2-isopropylphenyl)-1-methyl-5-oxopyrrolidine-3-carboxamide], the pIC50 was 7.00 to 8.00.

As to `COc1ccc(NC(=O)C2(c3ccccc3C(C)C)CC(CC(=O)O)C2)c(OC(F)F)n1` (single isomer, unassigned), the pIC50 was greater than 8.00.

As to `CC(C)c1ccccc1C1(C(=O)Nc2ccc(Cl)cn2)CC(CC(=O)O)C1` (single isomer, unassigned), the pIC50 is 7.00 to 8.00.
